# Biological target: MAO-B (Bos taurus, UniProt P56560)
# Sequences of proteins named here, by UniProt entry; tags and fusion partners are left off.
# UniProt P56560, whole entry: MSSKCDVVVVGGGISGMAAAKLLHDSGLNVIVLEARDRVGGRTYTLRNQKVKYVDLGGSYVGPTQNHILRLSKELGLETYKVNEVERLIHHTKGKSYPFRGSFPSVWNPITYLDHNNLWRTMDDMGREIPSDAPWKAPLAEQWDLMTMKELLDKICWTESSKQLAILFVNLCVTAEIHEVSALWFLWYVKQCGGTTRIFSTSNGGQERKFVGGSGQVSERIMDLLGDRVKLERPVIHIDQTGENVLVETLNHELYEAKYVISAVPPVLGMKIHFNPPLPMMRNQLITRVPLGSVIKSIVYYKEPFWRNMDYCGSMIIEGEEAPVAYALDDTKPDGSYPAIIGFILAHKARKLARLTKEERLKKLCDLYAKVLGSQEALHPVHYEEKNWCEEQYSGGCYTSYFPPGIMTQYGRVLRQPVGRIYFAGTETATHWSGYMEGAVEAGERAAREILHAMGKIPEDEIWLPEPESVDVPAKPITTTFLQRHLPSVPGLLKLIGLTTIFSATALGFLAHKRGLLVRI
# Assay: Monoamine oxidase B substrate assay, beef liver mitochondria, fluorescence detection of indole product
# Details: known inhibitor of MAO-B added
structure (smiles),measurement,value
"C#CCN(C)[C@H](C)Cc1ccccc1 [Probe 1-deprenyl, 1-deprenyl, reference compound]",effect on conversion of probe 9 by the mitochondria,abolished
